Laboratory results from ChEMBL document CHEMBL1133711 (J Med Chem, 2000).

Chains of the proteins cited; added tags and fusions are not shown.
UniProt P50406, whole entry: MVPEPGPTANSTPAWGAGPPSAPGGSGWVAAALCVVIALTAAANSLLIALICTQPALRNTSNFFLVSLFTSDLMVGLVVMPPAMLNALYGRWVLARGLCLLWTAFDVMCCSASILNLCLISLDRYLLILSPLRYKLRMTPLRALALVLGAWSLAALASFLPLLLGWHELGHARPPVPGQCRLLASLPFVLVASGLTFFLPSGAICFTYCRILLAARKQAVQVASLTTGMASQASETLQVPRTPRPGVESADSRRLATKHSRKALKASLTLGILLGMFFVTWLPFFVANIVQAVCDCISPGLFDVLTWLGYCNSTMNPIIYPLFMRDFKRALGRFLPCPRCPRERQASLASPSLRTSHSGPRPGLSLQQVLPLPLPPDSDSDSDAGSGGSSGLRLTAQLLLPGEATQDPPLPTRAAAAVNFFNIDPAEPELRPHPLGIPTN

Target: 5-hydroxytryptamine receptor 6 (Homo sapiens, UniProt P50406)
Assay: Binding affinity for human 5-hydroxytryptamine 6 receptor expressed in HEK 293 human embryonic kidney cells, [3H]-lysergic acid diethylamide as radioligand
Type: cell-based, HEK293

`COc1ccc2[nH]cc(CCN(C)C)c2c1` [MEBUFOTENIN] was tested, and the Ki was 78 nM.
